Consider 1 molecule from patent US7919510B2 (priority 2005, dated 2011).

The test has as its target T1, human neuronal constitutive NOS (nNOS) (Homo sapiens, UniProt P29475).
T1 construct: purchased ALEXIS; host or cells: Baculovirus-infected Sf9 cells
The experiment in a line: biochemical.

The term IC50 denotes the midpoint of a concentration-inhibition curve.

The molecule `CN1CCC(n2cnc3cc(NC(=N)c4cccs4)ccc32)CC1` [Compound 59] gave a concentration for half-maximal inhibition (IC50) of 1.72 µM.
